The record followed here is patent US7094423B1, “Methods for preparation of lipid-encapsulated therapeutic agents” (INEX Pharmaceuticals Corp., priority 1999, dated 2006).

This data set can be described thus: Leakage experiments: ethanol-induced permeabilization of LUVs. It counts as physicochemical. The note with it: DSPC/Chol/PEG-CerC14/DODAP liposomes in 40% ethanol. As to the method:
Leakage experiments. Ethanol-induced permeabilization of LUVs was measured at different temperatures and as a function of the size (MW) of the entrapped solute. Calcein was used as a low molecular weight marker for leakage and FITC-dextran (MW 19500) as a high molecular weight marker. Leakage of calcein entrapped at self-quenching concentrations was followed by monitoring the dequenching of the calcein fluorescence. LUVs were prepared by hydration of a lipid film with an aqueous solution containing 75 mM calcein and 5 mM HEPES adjusted to pH 7.5 by addition of sodium hydroxide, followed by 5 freeze/thaw cycles and extrusion through 2 stacked 100 nm filters (10 passes). In the case of […] extrusion was performed at 60° C. […] The fluorescence at 520 nm was measured (excitation wavelength […], long-pass filter at 430 nm) with a Perkin Elmer LS50 Fluorimeter (Perkin Elmer) after 5 min of incubation at the corresponding temperature. […] The loss of FITC-dextran from liposomes exposed to 40% ethanol was determined after removal of released FITC-dextran by size exclusion chromatography on a Sepharose CL4B column (1.5×15 cm). The FITC/LRh-PE ratio was measured before and after addition of ethanol. FITC and LRh-PE fluorescence were measured at 515 nm and 590 nm with the excitation wavelength set to 485 nm and 560 nm, respectively.

For the substance FITC-dextran, the release from liposomes result is “less than 10%”.
